Protein sequences, listed by entry. Tags and fused reporters are not part of them. Lines headed by an entry give the natural chain unless they say otherwise; changes in a name come on top.
UniProt P22411: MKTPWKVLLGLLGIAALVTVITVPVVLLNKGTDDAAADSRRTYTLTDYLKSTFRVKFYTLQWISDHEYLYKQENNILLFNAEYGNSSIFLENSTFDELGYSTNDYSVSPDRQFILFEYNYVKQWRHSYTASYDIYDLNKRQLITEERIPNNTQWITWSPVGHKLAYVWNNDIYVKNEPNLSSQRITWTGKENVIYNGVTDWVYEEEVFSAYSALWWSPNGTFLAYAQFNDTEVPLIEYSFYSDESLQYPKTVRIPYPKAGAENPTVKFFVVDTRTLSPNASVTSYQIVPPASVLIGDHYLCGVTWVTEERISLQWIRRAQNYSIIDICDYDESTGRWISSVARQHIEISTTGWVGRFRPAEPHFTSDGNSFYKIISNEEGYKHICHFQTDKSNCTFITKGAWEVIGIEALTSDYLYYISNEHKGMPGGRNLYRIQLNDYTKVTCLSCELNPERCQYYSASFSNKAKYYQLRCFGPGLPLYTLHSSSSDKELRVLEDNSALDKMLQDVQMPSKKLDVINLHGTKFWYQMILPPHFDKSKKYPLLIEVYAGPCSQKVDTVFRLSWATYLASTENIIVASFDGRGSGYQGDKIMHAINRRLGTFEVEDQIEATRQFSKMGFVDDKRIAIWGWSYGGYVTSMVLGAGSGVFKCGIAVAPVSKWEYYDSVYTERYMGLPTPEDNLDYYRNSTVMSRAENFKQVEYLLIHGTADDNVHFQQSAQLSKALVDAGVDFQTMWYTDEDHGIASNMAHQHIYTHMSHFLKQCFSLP
UniProt P27487, whole entry, species assumed: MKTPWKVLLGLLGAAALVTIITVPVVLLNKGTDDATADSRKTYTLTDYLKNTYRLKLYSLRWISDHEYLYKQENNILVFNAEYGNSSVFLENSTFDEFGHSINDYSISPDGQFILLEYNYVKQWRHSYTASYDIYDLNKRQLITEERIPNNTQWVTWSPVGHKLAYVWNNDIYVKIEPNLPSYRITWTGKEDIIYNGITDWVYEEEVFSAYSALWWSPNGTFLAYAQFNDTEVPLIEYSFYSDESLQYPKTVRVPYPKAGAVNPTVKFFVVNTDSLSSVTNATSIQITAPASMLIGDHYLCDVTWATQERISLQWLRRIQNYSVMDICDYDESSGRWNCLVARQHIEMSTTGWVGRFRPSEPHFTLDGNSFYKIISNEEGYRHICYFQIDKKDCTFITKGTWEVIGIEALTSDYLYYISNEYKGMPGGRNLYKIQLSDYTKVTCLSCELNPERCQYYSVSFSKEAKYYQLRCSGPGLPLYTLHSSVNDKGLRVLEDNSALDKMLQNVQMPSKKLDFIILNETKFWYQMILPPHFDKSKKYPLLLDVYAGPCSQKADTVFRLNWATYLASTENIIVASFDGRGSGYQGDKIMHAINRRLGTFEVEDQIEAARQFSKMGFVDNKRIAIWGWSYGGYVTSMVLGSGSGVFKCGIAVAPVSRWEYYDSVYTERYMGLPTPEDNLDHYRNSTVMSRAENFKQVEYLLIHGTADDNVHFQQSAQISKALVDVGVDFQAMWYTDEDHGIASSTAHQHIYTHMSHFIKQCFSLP

According to patent US20140193463A1, “PEPTIDE FOR INHIBITING DIPEPTIDYL-PEPTIDASE IV” (CHINA MEDICAL UNIVERSITY, priority 2013, published 2014):

Experiments:
[1] = molecular target: T1, Dipeptidyl-peptidase IV (D7052, from porcine kidney) (Sus scrofa, UniProt P22411); assay: Determination of DPP-IV-inhibitory activity (Gly-Pro-p-nitroanilide substrate, absorbance 405 nm); assay type: biochemical; conditions: synthetic peptides and diprotin A, present example (FIG. 4A-4C)
T1 construct: Dipeptidyl-peptidase IV (D7052, from porcine kidney); purchased Sigma-Aldrich D7052; host or cells: porcine kidney (tissue-derived)
Description: Atlantic salmon (Salmo salar) fish skins, processing byproducts recovered from fresh skin-off fillets, were supplied by Albion Fisheries Ltd. (Vancouver, BC, Canada). The fish skins were transferred on ice, vacuum packed, and stored at −25° C. until use. Three food-grade proteolytic enzymes were donated by Neova Technologies Inc. (Abbotsford, BC, Canada). Alcalase 2.4 L FG (from Bacillus licheniformis, 2.4 AU/g) and Flavourzyme 1000 L (from Aspergillus oryzae, 1000 LAPU/g) were products from Novo-zymes North America Inc. (Salem, N.C., […]), whereas bromelain (from pineapple stem, 2000 GDU/g) was manufactured by Ultra Bio-Logics Inc. (Montreal, QC, Canada), Dipeptidyl-peptidase IV (D7052, from porcine kidney), Gly-Prop-nitroanilide hydrochloride, trichloroacetic acid (TCA), L-leucine, and diprotin A were purchased from Sigma-Aldrich (St. Louis, Mo.). Trinitrobenzenesulfonic acid (TNBS) was obtained from Fluka Biochemika Oakville ON, Canada). Other chemicals and reagents used were of analytical grade and commercially available,
DPP-IV activity determination was performed in 96-well microplates. In order to measure an increment in absorbance at 405 nm, Gly-Pro-p-nitroanilide is used as a DPP-IV substrate. […] The absorbance of the resulting solution was measured at 405 nm with a microplate reader (iEMS reader MF; Labsystems, Helsinki, Finland). […]

DPP-IV = DPP-IV (Homo sapiens, UniProt P27487); conditions: cited from earlier work

For `CC[C@H](C)[C@H](N)C(=O)N1CCC[C@H]1C(=O)N[C@H](C(=O)O)[C@@H](C)CC` [diprotin A, Ile-Pro-Ile], the IC50 [1] is listed as 24.7 µM, the “IC50 values, inhibitory activity on DPP-IV” value (DPP-IV; isolated from culture filtrates of Bacillus cereus BMF673-RF1, related art) is listed as 1.1 µg/mL (≈ 3.22 µM) and the IC50 (DPP-IV; previous studies, read-out: IC50 values against DPP-IV) is listed as 3.2 µM. For the same compound, the IC50 (DPP-IV; reported by Patent WO 2006/068480, read-out: IC50 value against DPP-IV) was roughly 5 µM.

Values after ≈ are worked out from the molar mass of the structure shown. Like-named read-outs stand apart in the source and are kept apart here.
